Results as given in ChEMBL document CHEMBL5726367, “Aldosterone synthase inhibitors” (2017).

Target: T1, Cytochrome P450 11B2, mitochondrial (Homo sapiens, UniProt P19099)
T1 sequence (P19099 whole entry): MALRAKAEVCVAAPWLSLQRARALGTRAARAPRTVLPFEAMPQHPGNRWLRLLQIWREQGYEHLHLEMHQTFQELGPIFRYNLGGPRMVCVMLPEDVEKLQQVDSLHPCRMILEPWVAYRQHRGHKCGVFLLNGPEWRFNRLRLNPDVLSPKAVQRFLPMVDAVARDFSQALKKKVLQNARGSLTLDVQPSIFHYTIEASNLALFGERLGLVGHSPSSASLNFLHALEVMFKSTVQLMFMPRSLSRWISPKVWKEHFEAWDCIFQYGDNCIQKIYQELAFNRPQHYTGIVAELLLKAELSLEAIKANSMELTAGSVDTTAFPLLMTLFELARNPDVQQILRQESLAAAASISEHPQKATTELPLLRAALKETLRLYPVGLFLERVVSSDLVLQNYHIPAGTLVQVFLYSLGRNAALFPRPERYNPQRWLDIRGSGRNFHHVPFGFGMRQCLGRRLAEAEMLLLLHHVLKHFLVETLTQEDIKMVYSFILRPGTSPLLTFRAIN
Test: Inhibition Assay: Assays are performed in 96-well format in a final volume of 60 μL/well, containing 100 mM potassium phosphate, pH 7.4, 1% (v/v) DMSO, and additionally, 2 μM of corticosterone and 50 units of CYP11B2 activity. Reactions are started by the addition of NADPH to 1 mM and allowed to proceed for 90 minutes at 37° C. Reactions are terminated by the addition of 60 μL of MeCN containing an internal standard for mass spectrometry. One hundred microliters are then transferred to a glass filter plate and centrifuged at 570×g for 5 minutes and the filtrate is collected. Reaction product aldosterone is quantified by mass spectrometry. To determine the assay blank value (0% activity), NADPH is omitted from some reactions.

IC50: > 1000 nM
Structure (SMILES): NC(=O)c1cccc2c1OCC(c1cncc(CC(=O)N3CCOCC3)c1)O2 (single isomer, unassigned)
